In patent publication US8968702B2, “Inhibition of HIF-1 activation for anti-tumor and anti-inflammatory responses” (Duke University, priority 2006, dated 2015):
Where two headings read alike, the source gives them in different places. Where a SMILES comes first, the peptide text is derived from it. The star is where a group is joined. Cbz = O=C(OCc1ccccc1)*

Test system: C533S-ODD-luc

SMILES | activation of C533S-ODD-luc compared with wild type ODD-luc | activation of C533S-ODD-luc compared with wild type ODD-luc (4T1 cells, CoCl2 or proteasome inhibitor MG132, as in FIG. 1B)
[Cl-].[Cl-].[Co+2] [CoCl2] | significant inductions, similar to wild-type | –
CC(C)C[C@@H](C=O)NC(=O)[C@H](CC(C)C)NC(=O)[C@H](CC(C)C)NC(=O)OCc1ccccc1 [MG132] (Cbz-Leu-Leu-Leu-aldehyde) | – | p>0.05 between wild type and mutant ODD-luc expression levels
